# Binding of CDR-mutated scFvs to a peptide of the spike HR2 region

Values reported by Engelhart et al. 2022, doi:10.1038/s41597-022-01779-4 (FLAb copy).

The target is the same throughout: PDVDLGDISGINAS, from the HR2 region of SARS-CoV-2 spike.

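Phage display of a naive human antibody library on the peptide gave the parent. Library AAYL52 holds single substitutions and randomly drawn double and triple substitutions in the CDRs. The assay is AlphaSeq: two haploid yeast populations carry antibody and antigen on their surface. After mating in shaken culture at 30 °C for 16 h, diploids were selected and their barcode pairs sequenced. Each replicate has its own calibration line, from reference interactions of the BCL2 family. Mating was done three times.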

Parent: Ab-95, a human scFv built as VH, three GGGGS repeats, VL. Only the CDRs of the light chain vary.
VH: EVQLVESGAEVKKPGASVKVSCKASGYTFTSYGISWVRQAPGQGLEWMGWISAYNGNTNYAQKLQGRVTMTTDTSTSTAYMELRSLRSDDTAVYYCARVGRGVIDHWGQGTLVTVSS
VL: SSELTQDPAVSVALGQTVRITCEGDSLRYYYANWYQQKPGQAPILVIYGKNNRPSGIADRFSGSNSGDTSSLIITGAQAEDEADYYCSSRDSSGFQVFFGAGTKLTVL

Each variant's VL is given in full. Values are apparent Kd, the geometric mean of the replicates that gave a signal; lower means stronger binding. Where no diploid with the target was found in any replicate, the entry reads "no signal": below detection, most likely a poor binder, though not proof of it. In this assay the parent's reference entry averaged 200 nM; its copy inside this library read 180 nM.

apparent Kd,detected,empty controls,VL
720 nM,3 of 3,1 of 9,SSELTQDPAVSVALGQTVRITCRGDSLRYYYANWYQQKPGQAPILVIYGKWNRPSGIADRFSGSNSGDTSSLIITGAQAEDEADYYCSSRDSSGFQVFFGAGTKLTVL
300 nM,3 of 3,3 of 9,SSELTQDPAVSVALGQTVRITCEGDSLRYYYANWYQQKPGQAPILVIYGKNNTVSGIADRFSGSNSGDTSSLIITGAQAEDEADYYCSSRDSSGFQVNFGAGTKLTVL
74 nM,3 of 3,5 of 9,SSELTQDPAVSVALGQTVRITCEGDSLRYEEANWYQQKPGQAPILVIYGRNNRPSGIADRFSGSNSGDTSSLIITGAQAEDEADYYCSSRDSSGFQVFFGAGTKLTVL
610 nM,3 of 3,2 of 9,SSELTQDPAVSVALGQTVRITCEGRSIRYYYANWYQQKPGQAPILVIYGKNNRPSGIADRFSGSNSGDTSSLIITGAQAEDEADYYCSSRDSSGFQVFFGAGTKLTVL
6.2 µM,1 of 3,2 of 9,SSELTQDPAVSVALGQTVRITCERDSLRYYYANWYQQKPGQAPILVIYGKNNRPSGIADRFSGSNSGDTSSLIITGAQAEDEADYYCRSRYSSGFQVFFGAGTKLTVL
14 µM,3 of 3,5 of 9,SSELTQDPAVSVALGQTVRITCEGDSLRYYYANWYQQKPGQAPILVIYGCNNRPKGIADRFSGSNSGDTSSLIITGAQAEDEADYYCSSRHSSGFQVFFGAGTKLTVL
20 µM,3 of 3,3 of 9,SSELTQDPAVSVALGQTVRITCEGDSLYYYYANWYQQKPGQAPILVIYGKNNPPSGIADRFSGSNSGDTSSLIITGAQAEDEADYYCSSRDSSGGQVFFGAGTKLTVL
6.2 µM,2 of 3,3 of 9,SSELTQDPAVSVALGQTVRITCEGDSPRYYYANWYQQKPGQAPILVIYASNNRPSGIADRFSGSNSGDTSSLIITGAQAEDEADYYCSSRDSSGFQVFFGAGTKLTVL
2.4 µM,3 of 3,3 of 9,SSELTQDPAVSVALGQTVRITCKGISLRYYYANWYQQKPGQAPILVIYGKNNRPSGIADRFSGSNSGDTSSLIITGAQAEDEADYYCSMRDSSGFQVFFGAGTKLTVL
700 nM,2 of 3,1 of 9,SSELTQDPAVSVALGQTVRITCEGDSLRYYYANWYQQKPGQAPILVIYQKNNRPSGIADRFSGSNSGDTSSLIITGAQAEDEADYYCSSRDSSGFKVFFGAGTKLTVL
290 nM,3 of 3,5 of 9,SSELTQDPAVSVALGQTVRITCEGDSLRPYYANWYQQKPGQAPILVIYGKNNRPSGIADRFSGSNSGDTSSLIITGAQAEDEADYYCSSRDSSGFQGFFGAGTKLTVL
no signal,0 of 3,3 of 9,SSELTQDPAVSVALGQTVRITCEGDSLHYYYANWYQQKPGQAPILVIYGKNNRPSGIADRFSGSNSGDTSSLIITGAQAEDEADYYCRSRDSHGFQVFFGAGTKLTVL
19 µM,1 of 3,2 of 9,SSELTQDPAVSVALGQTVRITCEGDFLRYYYANWYQQKPGQAPILVIYGFNNWPSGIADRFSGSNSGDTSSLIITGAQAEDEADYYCSSRDSSGFQVFFGAGTKLTVL
850 nM,2 of 3,3 of 9,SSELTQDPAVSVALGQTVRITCEGDSLRYYYANWYQQKPGQAPILVIYGKNNRPRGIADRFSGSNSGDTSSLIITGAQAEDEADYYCSSRDDFGFQVFFGAGTKLTVL
29 nM,3 of 3,5 of 9,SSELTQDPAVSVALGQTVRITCEGDSLRYYSANWYQQKPGQAPILVIYGNNNRPSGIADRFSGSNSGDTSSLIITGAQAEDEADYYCSSRISSGFQVFFGAGTKLTVL
5.4 µM,2 of 3,1 of 9,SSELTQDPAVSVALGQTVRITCEGDSLRYYYAWWYQQKPGQAPILVIYGKNNRPSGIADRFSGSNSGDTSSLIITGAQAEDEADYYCSSRDSSGPQVFFGAGTKLTVL
16 µM,1 of 3,0 of 9,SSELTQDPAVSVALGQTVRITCEGLSLRYYYANWYQQKPGQAPILVIYGKNNRPSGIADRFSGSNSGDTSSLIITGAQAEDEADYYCSYRDSSGFQVFFGAGTKLTVL

Extract of 2 entries:

| VL | apparent Kd | detected | empty controls |
|---|---|---|---|
| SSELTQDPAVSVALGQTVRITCEGDSLRYYYANWYQQKPGQAPILVIYQKNNRPSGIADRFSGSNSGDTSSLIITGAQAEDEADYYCSSRDSSGFKVFFGAGTKLTVL | 700 nM | 2 of 3 | 1 of 9 |
| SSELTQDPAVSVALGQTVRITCEGDSLRYYYAWWYQQKPGQAPILVIYGKNNRPSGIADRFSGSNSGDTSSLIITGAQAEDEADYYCSSRDSSGPQVFFGAGTKLTVL | 5.4 µM | 2 of 3 | 1 of 9 |

Three control strains display no target. For library AAYL52, 28% of the pairings with them gave a signal, with a median of 8.2 µM and one signal in twenty below 800 nM, so weak values seen in few replicates may be background. Also given: how often the same scFv was detected with the empty control strains.